Earlier results in article PMC4141160, “Peptide Inhibitor of Complement C1, a Novel Suppressor of Classical Pathway Activation: Mechanistic Studies and Clinical Potential” (Frontiers in Immunology, 2014).

Sequences of proteins named here, by UniProt entry; tags and fusion partners are left off. Residues count along the entry.
UniProt P00736, 18-705, chain 1 of 2: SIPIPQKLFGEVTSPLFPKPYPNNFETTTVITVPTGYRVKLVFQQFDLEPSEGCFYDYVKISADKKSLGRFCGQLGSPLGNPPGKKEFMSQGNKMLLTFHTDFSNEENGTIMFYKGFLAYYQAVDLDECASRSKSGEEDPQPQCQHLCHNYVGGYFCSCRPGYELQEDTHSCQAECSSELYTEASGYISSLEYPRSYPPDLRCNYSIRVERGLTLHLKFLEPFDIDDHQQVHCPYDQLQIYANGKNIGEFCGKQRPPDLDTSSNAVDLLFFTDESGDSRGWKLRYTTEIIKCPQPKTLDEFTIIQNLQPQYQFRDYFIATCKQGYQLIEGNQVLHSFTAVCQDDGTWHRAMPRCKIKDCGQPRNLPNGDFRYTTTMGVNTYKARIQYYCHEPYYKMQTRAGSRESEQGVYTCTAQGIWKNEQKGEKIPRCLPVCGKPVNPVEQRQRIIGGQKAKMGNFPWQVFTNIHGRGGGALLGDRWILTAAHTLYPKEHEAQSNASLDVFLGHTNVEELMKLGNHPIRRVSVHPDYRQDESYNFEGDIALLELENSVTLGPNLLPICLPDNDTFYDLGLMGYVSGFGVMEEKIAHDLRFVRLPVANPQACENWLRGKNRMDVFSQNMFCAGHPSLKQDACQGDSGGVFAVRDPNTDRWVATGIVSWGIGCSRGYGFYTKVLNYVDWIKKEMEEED
UniProt P02745, 23-245: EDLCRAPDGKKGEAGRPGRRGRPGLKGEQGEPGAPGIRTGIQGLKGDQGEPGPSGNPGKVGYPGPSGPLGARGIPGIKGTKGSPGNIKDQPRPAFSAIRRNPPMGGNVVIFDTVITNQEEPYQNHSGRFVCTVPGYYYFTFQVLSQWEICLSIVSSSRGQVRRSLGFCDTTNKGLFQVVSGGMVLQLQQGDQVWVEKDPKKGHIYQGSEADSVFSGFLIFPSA

Biological target: C1s-C1r-C1r-C1s (Homo sapiens) (UniProt P00736)
Assay: SPR

- Kd: 2.72 nM
Substance: C1q (from UniProt P02745)
